Laboratory results from patent publication US20180355033A1, “ANTIBODIES, COMPOUNDS AND SCREENS FOR IDENTIFYING AND TREATING CACHEXIA OR PRE-CACHEXIA” (Dana-Farber Cancer Institute, Inc., priority 2015, published 2018).

Tested on: human muscle cells
Experiment: Competition/depletion of RAGE ligands with recombinant soluble RAGE, MyoHC loss
Type: cell-based
Experimental: Muscle cells were treated with 1, 2, 10, 30 μg/ml rsRAGE in the presence of either cachexia-inducing conditioned media (CI-CM) or non-cachexia-inducing conditioned media (NCI-CM). […] RAGE ligands were depleted by treatment with 10 μg/ml rsRAGE and reconstituted by treatment with 1×, 0.5×, 0.25× of eluent (PBS).

rsRAGE: recombinant soluble RAGE that competes with membrane-bound RAGE for binding RAGE ligands
inhibition of cachectic induced loss of MyoHC protein (1, 2, 10, 30 μg/ml rsRAGE with CI-CM or NCI-CM): inhibit the cachectic induced loss of MyoHC protein
depletion of cachexia activity from conditioned media (FIG. 39): depletes conditioned media of cachexia activity
